## Measured affinities in a library of Ab-14 heavy chain variants

Values reported by Li et al. 2023, doi:10.1038/s41467-023-39022-2 (FLAb copy).

The target is the same throughout: PDVDLGDISGINAS, from the HR2 region of SARS-CoV-2 spike.

The variants keep the light chain, the linker and the frameworks of Ab-14 (scFv order VH, the linker GGGGSGGGGSGGGGS, VL).
VH: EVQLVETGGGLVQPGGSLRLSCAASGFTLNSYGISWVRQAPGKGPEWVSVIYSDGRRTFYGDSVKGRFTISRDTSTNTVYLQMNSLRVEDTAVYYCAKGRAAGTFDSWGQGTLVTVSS
VL: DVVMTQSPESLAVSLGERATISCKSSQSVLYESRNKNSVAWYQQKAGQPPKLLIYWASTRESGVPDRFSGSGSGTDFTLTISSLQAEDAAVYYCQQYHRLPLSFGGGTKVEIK

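The starting antibody came from a phage panning campaign against this peptide. These sequences belong to a second round, designed from the earlier measurements on random variants of the parent. Several design methods are mixed in this list. The scFvs were displayed on barcoded MATa yeast, the peptide on MATalpha yeast. After mating in shaken culture at 30 °C for 16 h, diploids were selected and their barcode pairs sequenced. A regression on co-assayed BCL2-family reference pairs converts the normalised counts of each replicate to an apparent Kd. Mating was done six times.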

Each variant is given by its three heavy chain CDRs, as the data file delimits them; those of the parent are GFTLNSYGIS, VIYSDGRRTFYGDSVK, GRAAGTFDS.
Scale: log10 of Kd in nM, estimated from mating counts; low values are strong binders.
A pair that was not seen in that replicate is written "nd"; this usually means weak binding, but a binder can also be missed.

| CDR-H1 | CDR-H2 | CDR-H3 | replicates, log10 nM |
|---|---|---|---|
| GFGLNSYGIH | VIYSDGRRTFYGDSVK | GREAGTFDQ | nd nd nd nd nd -0.03 |
| GFDLEEYGIS | VIYADGRRTAYADSVK | GNVAGTFDV | 0.52 -0.06 0.66 -0.30 -0.25 -0.38 |
| GDDLQEYGIS | VIYADGIRTAYGNKVK | GGQNGRITV | nd nd nd nd nd nd |
| GFDLNEYGIS | VIYADGLRTSYADSVK | GQNAGTFDQ | -0.87 -0.51 -0.74 -0.70 -0.82 -0.82 |
| GFSLNSYGIS | VIYSDGRRTFYGDSVK | GWVAGTFDS | 1.40 0.48 0.51 0.35 0.34 0.44 |
| GFTLESYGIS | VIYSDGRRTFYSDSVK | GLAAGTFDS | 0.90 0.92 0.78 -0.02 0.87 1.03 |
| GFDLNEYGIS | VIYADGMRTAYTDNVK | GNVAGTFDV | nd nd nd nd nd nd |
| GFSLNSYGIS | VIYSDGRRTFYQDSVK | GETAGTFDS | 0.14 0.35 0.20 0.36 0.20 0.20 |
| GFQLNEYGIS | VIYSDGRRTFYGDQVK | GQAAGTFDD | 0.55 nd nd nd nd nd |
| GFDLNEYGIS | VIYADGVRTYYADSVK | GNVAGTFDT | -0.20 -0.14 -0.48 -0.14 -0.30 -0.14 |
| GQTLNSYGIS | VIYSDGQRTFYGDSVK | GRAAGRFDS | nd nd nd nd nd nd |
| GFTLNDYGIS | VIYSDGRRTFYGDSVK | GRAALTVIE | nd 0.94 0.72 1.31 1.06 2.42 |
| GFSLNSYGIS | VIYSDGRRTFYGDSVK | GRQAGTFDA | 1.99 2.25 0.97 0.65 0.72 0.87 |
| GFDLNEYGIS | VIYADGLRTAYTDSVK | GENAGTFDV | 1.46 0.20 1.11 0.55 0.27 0.26 |
| GFDLNEYGIS | VIYADGMRTAYANSVK | GNNAGTFDV | -0.82 -0.39 -0.94 -0.50 -0.84 -0.62 |
| GFDLDEYGIS | VIYADGMRTAYADNVK | GQTAGTFDV | -0.34 -0.31 -0.53 -0.78 -0.64 -0.51 |
| GFDLNEYGIS | VIYADGRRKFYADKVK | GENAGTFDV | -0.40 0.24 -0.15 -0.30 -0.21 0.16 |
| GFTLNSYGIS | VMYSDGRRTFYSDSVK | GQAAGTFDS | 0.87 0.80 0.48 1.88 1.39 0.32 |
| GFTLNEYGIS | VIYSDGRRTFYQDSVK | GRFAGTFDK | 1.76 1.91 1.21 1.13 1.28 1.59 |
| GESLNSYGIS | VIYSDGRRTFYGDSVK | GRTAGTFDS | 0.29 -0.02 -0.29 -0.11 -0.47 0.32 |
| GFNLNSYGIS | VIYSDGRRTFYGDSVK | GVNAGTFDS | 0.28 0.92 1.22 1.00 -0.08 0.92 |
| GFTLNSYGIS | VIYSDGRRTFYSDAVK | GRAAGTFDS | 0.78 0.53 1.17 0.87 0.61 0.77 |

The remaining entries, values ahead:

| replicates, log10 nM | CDR-H1 | CDR-H2 | CDR-H3 |
|---|---|---|---|
| 0.31 0.65 0.30 0.16 0.22 0.59 | GFSLNSYGIS | VIYSDGRRTFYSDSVK | GKIAGTFDS |
| nd nd nd nd nd nd | GFTLNEYGIS | VIYSDQRRNFYGDSVK | GRAAGTFDL |
| 1.90 nd 1.96 0.96 2.21 1.90 | GFTINSYGIS | VIYSDGERTFYGDSVK | GRAAGTFDS |
| nd nd nd nd nd nd | GFNINDYGIS | VIYSDGRRTFYGDSVK | CAFAGRFFS |
| 0.27 -0.07 0.65 -0.50 0.38 -0.33 | GFSLNSYGIS | VIYSDGRRTFYGDSVK | GKVAGTFDS |
| 1.42 1.50 0.93 0.85 1.21 1.63 | GFELNSYGIS | VIYSDGRRTFYGDSVK | GRTAGTFDN |
| nd nd nd nd nd nd | GFDIEKYGIS | VIYADGQRQAYDSSVK | GEEAGNFHV |
| 1.05 0.26 0.52 0.60 0.30 0.30 | GFTLNSYGIS | VIYADGRRTFYGDQVK | GRVAGTFDS |
| -0.32 -0.30 -0.72 -0.39 -0.72 -0.09 | GFDLNEYGIS | VIYADGMRTAYSDDVK | GANAGTFDV |
| 0.54 0.20 0.09 0.18 0.27 0.44 | GFTLNQYGIS | VIYSDGTRTFYSDSVK | GRAAGTFDS |
| nd nd nd nd nd nd | GFTLNSYGIS | VIYSDGRRTFMGDSVK | GRAAGTFDS |
| 0.97 0.70 1.00 1.22 0.97 0.53 | GFHLNSYGIS | VIYSDGRRTFYADSVK | GSAAGTFDS |
| -0.15 -0.63 -0.97 -0.71 -0.19 -0.31 | GFDLNEYGIS | VIYADGVRTAYADSVK | GEEAGTFDV |
| nd nd nd nd nd 1.26 | GFDLNEYGIS | VIYADGRRTAYTDSVK | GEVAGTFDV |
| nd nd nd nd nd nd | GFDLGEYGIS | VIYADGRRFSYKDAVK | GVVEGMLDV |
| 1.50 nd nd nd nd nd | TFTLNSYGIS | VIYSDGRRTFYGDKVK | GRLAGTFDS |
| 1.71 2.34 1.15 1.98 0.94 1.65 | GFSLDEYGIS | VIYADGRRTFYADSVK | GEAAGTFDS |
| -0.97 0.25 -0.83 nd -0.55 0.62 | GFDLNEYGIS | VIYADGMRTAYADDVK | GNEAGTFDL |
| nd nd nd nd nd nd | GFDVDEYGIS | VIYADGFRTSYAADVK | GSQVGNALV |
| 0.15 -0.01 -0.26 -0.44 -0.12 0.07 | GFTLNEYGIS | VIYSDGRRTFYDDSVK | GRVAGTFDS |
| -0.97 -0.63 -0.64 -0.98 -0.80 -0.67 | GFDINEYGIS | VIYADGQRTFYADSVK | GQTAGTFDS |
| nd nd nd nd nd nd | GFTLNSYGIS | VIYSDGRRTFYGDSVK | GSAMITFDS |

5 of these entries, quoted again:

| CDR-H1 | CDR-H2 | CDR-H3 | replicates, log10 nM |
|---|---|---|---|
| GFSLNSYGIS | VIYSDGRRTFYQDSVK | GETAGTFDS | 0.14 0.35 0.20 0.36 0.20 0.20 |
| GFTLNEYGIS | VIYSDQRRNFYGDSVK | GRAAGTFDL | nd nd nd nd nd nd |
| GFSLNSYGIS | VIYSDGRRTFYGDSVK | GKVAGTFDS | 0.27 -0.07 0.65 -0.50 0.38 -0.33 |
| GFTLNDYGIS | VIYSDGRRTFYGDSVK | GRAALTVIE | nd 0.94 0.72 1.31 1.06 2.42 |
| GFSLNSYGIS | VIYSDGRRTFYGDSVK | GWVAGTFDS | 1.40 0.48 0.51 0.35 0.34 0.44 |

The authors averaged sequences with at least three values out of six and counted those with two or fewer as poor binders.
As a blank, each scFv also met three strains without target: over all heavy chain designs, 1% of these pairings were detected, typically at 2.08 and seldom below 0.84.
A sequence measured in both rounds can read differently, since the two assays cover different ranges.